Paper PMC3870192

How the values were obtained:
[1] = system: COc1cccc2[nH]cc(C[C@H](N)C(=O)O)c12; assay: purified protein; format: biochemical, Plenodomus lingam; settings: 1 mM [1-14C]DMAPP, 100 mM Tris-HCl pH 8.0, 2% glycerol, 30 °C
[2] = system: Cc1cccc2c(C[C@H](N)C(=O)O)c[nH]c12; assay: purified protein; format: biochemical, Plenodomus lingam; settings: 1 mM [1-14C]DMAPP, 100 mM Tris-HCl pH 8.0, 2% glycerol, 30 °C

For “SirD (tyrosine O-prenyltransferase; dimethylallyltyrosine synthase) (Plenodomus lingam)”, the kcat [1] was 0.013 ± 0.003 s⁻¹ and the kcat [2] was 0.013 ± 0.001 s⁻¹.
